Test results as given in BindingDB's records for doi:10.7270/Q24B305P (D3R/Abbott, 2015).

Molecular target: Urokinase-type plasminogen activator [179-424,C299A,N323Q] (Human, UniProt P00749, C299A/N323Q)
Experiment: Photometric_Method1

Compound | Ki [µM]
[H]/N=C(\N)c1ccc2ccc(OC)c(OCCCBr)c2c1 [uPa_3] | 6.39
[H]/N=C(\N)c1ccc2cc(C(=O)Nc3ccc(CN)cc3)ccc2c1 | 0.04
